Patent US6984513B2, “Anaerobe targeted enzyme-mediated prodrug therapy” (priority 1994, dated 2006)

Test system: SCCVII cells
Experiment: Cytotoxicity of 5-FC to SCCVII cells with extract of tumors from mice injected with recombinant C. sporogenes spores
Settings: SCCVII cells incubated with 5-FC plus tumor extract for two days

Nc1nc(=O)[nH]cc1F [5-FC, 5-fluorocytosine]
increase in cytotoxicity of 5-FC by tumor extract (factor): approximately 10^3
